From patent US20260357306A1, “ONE-POT FERMENTATIVE PRODUCTION OF GLYCOLATE OR OTHER HYDROXYCARBOXYLIC ACIDS” (PHYCUS BIOTECHNOLOGIES INC., priority 2023, published 2026)

Tested on: OCCO
Experiment: purified protein, by the assay type
Conditions: other: role: substrate, 100 mM Tris-HCl pH 8.5, 30 °C, saturating NAD, EG 1-100 mM

Row | Substance | Km | Vmax [µmol/min/mg]
1 | Moraxella sp. (strain TAE123) alcohol dehydrogenase mtaADH, SEQ ID NO: 209 (Moraxella sp. TAE123) | 210 ± 65 μM EG | 3.2 ± 0.7
2 | Mycobacterium marinum alcohol dehydrogenase mmaADH, SEQ ID NO: 215 (Mycobacterium marinum M) | 77 ± 8 mM | 2.2 ± 0.1
